Assay results taken from PubChem BioAssay AID1745844 (Carcinogenic Potency Database (CPDB), 2022).

Test system: rodent lifetime carcinogenesis bioassay, tumor incidence TD50
Assay: carcinogenic potency in animals, long-term in vivo studies, CPDB compilation (AID 1745844)
Conditions: rat, strain BR 46, males, i.v., site: any site (literature study), dosed 52 weeks, study length 104 weeks

Compound: CN(CCCl)CCCl
- TD50 (lesion: benign tumor): 0.0342 mg/kg/day
- TD50 (lesion: malignant tumor): 0.0228 mg/kg/day
- TD50 (lesion: several types, types named in the paper): 0.0114 mg/kg/day
